Molecules are shown by their SMILES. In brackets after ≈: the same amount, converted by molar mass.

Series [1] concerns Staphylococcus aureus. Description: Antimicrobial activity against Staphylococcus aureus ATCC 29213 assessed as inhibition of bacterial growth incubated for 16 to 18 hrs by CLSI protocol based Muller Hinton broth assay. The series is classed as functional. Particulars: time 16-18 hrs.
The next series concerns Escherichia coli. Briefly: Antimicrobial activity against Escherichia coli ATCC 25922 assessed as inhibition of bacterial growth incubated for 16 to 18 hrs by CLSI protocol based Muller Hinton broth assay. The class given is functional. Particulars: time 16-18 hrs.
Series [2] in a line: Hemolytic activity in defibrinated sheep RBC incubated for 1 hrs. The class given is toxicity, cell-based, Ovis aries, Erythrocyte. Particulars: defibrinated sheep red blood cells.
The test system of series [3] is Staphylococcus aureus. Description: Antibacterial activity against Staphylococcus aureus assessed as inhibition of bacterial growth incubated for 6 hrs in presence of defibrinated sheep 50% plasma by CLSI protocol based Muller Hinton broth assay. The class given is functional.
In series [4] the test system is Staphylococcus aureus. Description: Antibacterial activity against Staphylococcus aureus assessed as inhibition of bacterial growth incubated for 6 hrs in presence of 50% fetal bovine plasma by CLSI protocol based Muller Hinton broth assay. The class given is functional.
Series [5] deals with Staphylococcus aureus. Description: Antibacterial activity against Staphylococcus aureus assessed as inhibition of bacterial growth incubated for 6 hrs in presence of 50% fetal bovine serum by CLSI protocol based Muller Hinton broth assay. The series is classed as functional.

What is called MIC is the lowest concentration found to suppress growth. For orientation: HC50 means the concentration that lyses half of the red blood cells. A low value points to more damage to red cells. As to `CC[C@H](C)[C@H](NC(=O)CN)C(=O)NCC(=O)N[C@@H](C)C(=O)N[C@H](C(=O)N[C@@H](CC(C)C)C(=O)N[C@@H](CCCCN)C(=O)N[C@H](C(=O)N[C@@H](CC(C)C)C(=O)N[C@H](C(=O)N[C@H](C(=O)NCC(=O)N[C@@H](CC(C)C)C(=O)N1CCC[C@H]1C(=O)N[C@@H](C)C(=O)N[C@@H](CC(C)C)C(=O)N[C@H](C(=O)N[C@@H](CO)C(=O)N[C@@H](Cc1c[nH]c2ccccc12)C(=O)N[C@H](C(=O)N[C@@H](CCCCN)C(=O)N[C@@H](CCCNC(=N)N)C(=O)N[C@@H](CCCCN)C(=O)N[C@@H](CCCNC(=N)N)C(=O)N[C@@H](CCC(N)=O)C(=O)N[C@@H](CCC(N)=O)C(N)=O)[C@@H](C)CC)[C@@H](C)CC)[C@@H](C)O)[C@@H](C)O)C(C)C)C(C)C` [MELITTIN], the minimal inhibitory concentration (MIC) in the series with Staphylococcus aureus [1] was found to be 4 µg/mL (≈ 1.41 µM); in the series with Escherichia coli, 4 µg/mL (≈ 1.41 µM); in the series on Staphylococcus aureus [3], 128 µg/mL; in the series on Staphylococcus aureus [4], 128 µg/mL; in the series with Staphylococcus aureus [5], 128 µg/mL. Moreover, in series [2], the HC50 at 1 h is 12.5 µg/mL.

Values taken from ChEMBL document CHEMBL5543099 (Eur J Med Chem, 2024).
